The source of these data is patent US8952177B2 (Janssen Pharmaceutica NV, priority 2013, dated 2015).

The chains behind the UniProt entries cited, without tags or fusion partners. Where a name states a change or a piece, a line headed by the entry shows the natural chain unless it says otherwise.
UniProt P20292: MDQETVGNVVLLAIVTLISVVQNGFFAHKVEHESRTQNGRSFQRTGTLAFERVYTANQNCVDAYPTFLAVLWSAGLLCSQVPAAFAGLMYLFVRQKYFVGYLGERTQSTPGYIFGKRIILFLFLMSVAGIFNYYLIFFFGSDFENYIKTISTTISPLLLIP

As usually defined, the Ki is the equilibrium dissociation constant of an inhibitor or competing ligand from its target.

Each structure is given as a SMILES string. Structures can show the parent of a compound that is named as a salt.

In this assay the target is human FLAP (Homo sapiens (Human), UniProt P20292). In words: FLAP binding assay (HTRF format). To be noted: human FLAP-containing Sf-9 membranes, 25 nM HTRF ligand, 2 h; average of runs; read-out: FLAP Binding wild type HTRF Ki.
On to `Cc1ccc(COc2ccc3nc(C4CCCC[C@H]4C(=O)O)n(Cc4ccc(N5CCC(F)(F)CC5)cc4)c3c2)nc1` (mixture of isomers) [Example 154, racemic cis-2-{1-[4-(4,4-Difluoropiperidin-1-yl)benzyl]-6-[(5-methylpyridin-2-yl)methoxy]-1H-benzimidazol-2-yl}cyclohexanecarboxylic acid], for which the Ki was determined as 3.7 nM.
Consider `CCC(CC)(Cc1nc2c(F)cc(OCc3ccc(C)cn3)cc2n1Cc1ccc(OC(F)(F)F)cc1)C(=O)O` [Example 69, 2-Ethyl-2-({4-fluoro-6-[(5-methylpyridin-2-yl)methoxy]-1-[4-1-trifluoromethoxy)benzyl]-1H-benzimidazol-2-yl}methyl)butanoic acid as the TFA salt], for which the inhibition constant (Ki) was 17 nM.
`Cc1ccc(Cn2c(C3CCCC[C@@H]3C(=O)O)nc3c(F)cc(OCc4ccc(C)cn4)cc32)cc1` (mixture of isomers) [Example 70, racemic trans-2-{4-Fluoro-1-(4-methylbenzyl)-6-[(5-methylpyridin-2-yl)methoxy]-1H-benzimidazol-2-yl}cyclohexanecarboxylic acid as the TFA salt]: the inhibition constant Ki was found to be 47 nM.
Regarding `Cc1ccc(COc2ccc3nc([C@@H]4CCCC[C@@H]4C(=O)O)n(Cc4ccc(Br)cc4)c3c2)nc1` (single isomer, unassigned) [Example 2], the Ki was 1.4 nM.
Under `Cc1ccc(COc2ccc3nc([C@H]4CCCC[C@H]4C(=O)O)n(Cc4ccc(Br)cc4)c3c2)nc1` (single isomer, unassigned) [Example 3] stands ~830 nM; under `Cc1ccc(COc2ccc3nc([C@H]4CCCC[C@@H]4C(=O)O)n(Cc4ccc(N5CC(F)(F)C5)cc4F)c3c2)nc1` (racemic) [Example 171], 13 nM.
On to `Cc1ccc(COc2ccc3nc([C@@H]4CCCC[C@@H]4C(=O)O)n(Cc4ccc(N5CCCCC5)cc4)c3c2)nc1` (stereo in doubt) [Example 157, (1S*,2R*)-2-{6-[(5-Methylpyridin-2-yl)methoxy]-1-(4-piperidin-1-ylbenzyl)-1H-benzimidazol-2-yl}cyclohexanecarboxylic acid], for which the Ki came out at 3 nM.
Take `Cc1ccc(COc2ccc3nc([C@H]4CCCC[C@H]4C(=O)O)n(Cc4ccc(N5CC(F)(F)C5)cc4F)c3c2)nc1` (stereo in doubt) [Example 166, (1R*,2S*)-2-{1-[4-(3,3-Difluoroazetidin-1-yl)-2-fluorobenzyl]-6-[5-methylpyridin-2-yl)methoxy]-1H-benzimidazol-2-yl}cyclohexanecarboxylic acid]: the inhibition constant Ki was determined as 370 nM.
In the case of `Cc1ccc(COc2ccc3nc([C@@H]4[C@H](C(=O)O)C4(C)C)n(Cc4ccc(Br)cc4F)c3c2)nc1` (stereo in doubt) [Example 15, racemic cis-3-{1-(4-Bromo-2-fluorobenzyl)-6-[(5-methylpyridin-2-yl)methoxy]-1H-benzimidazol-2-yl}-2,2-dimethylcyclopropanecarboxylic acid], the Ki was 49 nM.
In the case of `Cc1cnc(COc2ccc3nc([C@H]4CCCC[C@H]4C(=O)O)n(Cc4ccc(N5CCC(F)CC5)cc4F)c3c2)c(F)c1` (stereo in doubt) [Example 174, (1R*,2S*)-2-{1-[2-Fluoro-4-(4-fluoropiperidin-1-yl)benzyl]-6-[(3-fluoro-5-methylpyridin-2-yl)methoxy]-1H-benzimidazol-2-yl}cyclohexanecarboxylic acid], the inhibition constant (Ki) amounted to 0.34 nM.
As for `Cn1ccc(COc2cc(F)c3nc([C@H]4CCCC[C@H]4C(=O)O)n(Cc4ccc(C#N)cc4)c3c2)n1` (racemic) [Example 98, racemic cis-2-{1-(4-Cyanobenzyl)-4-fluoro-6-[(1-methyl-1H-pyrazol-3-yl)methoxy]-1H-benzimidazol-2-yl}cyclohexanecarboxylic acid as the HCl salt], the inhibition constant (Ki) turned out to be 58 nM.
On to `CCC(CC)(Cc1nc2ccc(OCc3ccn(C)n3)cc2n1Cc1ccc(N2CCC(C(F)(F)F)CC2)cc1F)C(=O)O` [Example 189, 2-ethyl-2-((1-(2-fluoro-4-(4-(trifluoromethyl)piperidin-1-yl)benzyl)-6-((1-methyl-1H-pyrazol-3-yl)methoxy)-1H-benzo[d]imidazol-2-yl)methyl)butanoic acid], for which the inhibitory constant (Ki) was 29 nM.
`Cc1ccc(COc2ccc3nc([C@@H]4CCCC[C@@H]4C(=O)O)n(Cc4ccc(OC(F)(F)F)cc4Br)c3c2)nc1` (racemic) [Example 102, racemic cis-2-{1-[2-Bromo-4-(trifluoromethoxy)benzyl]-6-[(5-methylpyridin-2-yl)methoxy]-1H-benzimidazol-2-yl}cyclohexanecarboxylic acid as the HCl salt]: the inhibition constant (Ki) amounted to 24 nM.
Under `Cc1ccc(COc2cc(F)c3nc(C4CCCC[C@@H]4C(=O)O)n(Cc4ccc(OC(F)(F)F)cc4)c3c2)nc1` (mixture of isomers) [Example 67, racemic trans-2-{4-Fluoro-6-[(5-methylpyridin-2-yl)methoxy]-1-[4-(trifluoromethoxy)benzyl]-1H-benzimidazol-2-yl}cyclohexanecarboxylic acid as the TFA salt] stands 11 nM; under `Cn1cc(Cl)c(COc2ccc3nc([C@@H]4CCCC[C@@H]4C(=O)O)n(Cc4ccc(Br)cc4)c3c2)n1` (racemic) [Example 81, racemic cis-2-{1-(4-Bromobenzyl)-6-[(4-chloro-1-methyl-1H-pyrazol-3-yl)methoxy]-1H-benzimidazol-2-yl}cyclohexanecarboxylic acid], 2.9 nM; under `Cc1ccc(COc2ccc3nc([C@H]4CCCC[C@H]4C(=O)O)n(Cc4c(F)cc(Br)cc4F)c3c2)nc1` (racemic) [Example 126, racemic cis-2-{1-(4-Bromo-2,6-difluorobenzyl)-6-[(5-methylpyridin-2-yl)methoxy]-1H-benzimidazol-2-yl}cyclohexanecarboxylic acid], 1.1 nM.
For `Cc1ccc(COc2ccc3nc(CC(C)(C)C(=O)O)n(Cc4ccc(Br)cc4)c3c2)nc1` [Example 118, 3-{1-(4-Bromobenzyl)-6-[(5-methylpyridin-2-yl)methoxy]-1H-benzimidazol-2-yl}-2,2-dimethylpropanoic acid as the TFA salt] the value was 130 nM; for `Cc1ccc(COc2ccc3nc(C4CCCC[C@H]4C(=O)O)n(Cc4ccc(Br)c(F)c4)c3c2)nc1` (mixture of isomers) [Example 4, racemic cis-2-{1-(4-Bromo-3-fluorobenzyl)-6-[(5-methylpyridin-2-yl)methoxy]-1H-benzimidazol-2-yl}cyclohexanecarboxylic acid as the TFA salt], 2.5 nM.
For the molecule `Cc1ccc(COc2ccc3nc(C4CCCC[C@H]4C(=O)O)n(Cc4ccc(N5CC(F)(F)C5)cc4)c3c2)nc1` (mixture of isomers) [Example 159, racemic cis-2-{1-[4-(3,3-Difluoroazetidin-1-yl)benzyl]-6-[(5-methylpyridin-2-yl)methoxy]-1H-benzimidazol-2-yl}cyclohexanecarboxylic acid], the Ki turned out to be 7.2 nM.
For `Cc1ccc(COc2ccc3nc([C@@H]4CCCC[C@@H]4C(=O)O)n(Cc4ccc(N5CC(F)(F)C5)cc4)c3c2)nc1` (relative stereo) [Example 160, (1S*,2R*)-2-{1-[4-(3,3-Difluoroazetidin-1-yl)benzyl]-6-[(5-methylpyridin-2-yl)methoxy]-1H-benzimidazol-2-yl}cyclohexanecarboxylic acid], the inhibition constant Ki came out at 3.8 nM.
On to `Cc1ccc(COc2ccc3nc([C@@H]4[C@H](C(=O)O)C4(C)C)n(Cc4ccc(OC(F)(F)F)cc4)c3c2)nc1` (racemic) [Example 25], for which the Ki is 61 nM.
